Reference: patent publication US11920136B2, “Transglutaminase-mediated conjugation” (Tallac Therapeutics, Inc., priority 2020, dated 2024)
Where a chain is given by its changes, count along the chain named. Names may count otherwise.

B1: TNT81: one of the "humanized RFB4 variants" that bind human CD22; "higher affinity (~0.1 nM) than RFB4" (antibody)
heavy: EVQLVESGGGLVQPGGSLRLSCAASGFAFSIYDMSWVRQAPGKGLEWVAYISSGGGTTYYPDTVKGRFTISRDNSKNTLYLQMNSLRAEDTAVYYCARHSGYGTHWGVLFAYWGRGTLVTVSSASTKGPSVFPLAPSSKSTSGGTAALGCLVKDYFPEPVTVSWNSGALTSGVHTFPAVLQSSGLYSLSSVVTVPSSSLGTQTYICNVNHKPSNTKVDKKVEPKSCDKTHTCPPCPAPEAAGAPSVFLFPPKPKDTLMISRTPEVTCVVVDVSHEDPEVKFNWYVDGVEVHNAKTKPREEQYNSTYRVVSVLTVLHQDWLNGKEYKCKVSNKALPAPIEKTISKAKGQPREPQVYTLPPSREEMTKNQVSLTCLVKGFYPSDIAVEWESNGQPENNYKTTPPVLDSDGSFFLYSKLTVDKSRWQQGNVFSCSVMHEALHNHYTQKSLSLSPGRPQGFGPP
light: EIVLTQSPATLSLSPGERATLSCRASQDIHGYLNWYQQKPGQAPRLLIYYTSILHSGIPARFSGSGPGTDFTLTISSLEPEDFAVYYCQQGNTLPWTFGGGTKLEIKRTVAAPSVFIFPPSDEQLKSGTASVVCLLNNFYPREAKVQWKVDNALQSGNSQESVTEQDSKDSTYSLSSTLTLSKADYEKHKVYACEVTHQGLSSPVTKSFNRGEC
B2: TNT84: one of the "humanized RFB4 variants" that bind human CD22; "affinities equivalent to RFB4" (antibody)
heavy: QVQLQESGPGLVKPSDTLSLTCTVSGFAFSIYDMSWIRQPPGKGLEWIAYISSGGGTTYYNPSLKSRVTISVDTSKNQFSLKLSSVTAADTAVYYCARHSGYGTHWGVLFAYWGRGTLVTVSSASTKGPSVFPLAPSSKSTSGGTAALGCLVKDYFPEPVTVSWNSGALTSGVHTFPAVLQSSGLYSLSSVVTVPSSSLGTQTYICNVNHKPSNTKVDKKVEPKSCDKTHTCPPCPAPEAAGAPSVFLFPPKPKDTLMISRTPEVTCVVVDVSHEDPEVKFNWYVDGVEVHNAKTKPREEQYNSTYRVVSVLTVLHQDWLNGKEYKCKVSNKALPAPIEKTISKAKGQPREPQVYTLPPSREEMTKNQVSLTCLVKGFYPSDIAVEWESNGQPENNYKTTPPVLDSDGSFFLYSKLTVDKSRWQQGNVFSCSVMHEALHNHYTQKSLSLSPGRPQGFGPP
light: B1 light
B3: N92D: humanized anti-CD22 antibody variant: CDR-L3 N92 "mutated in the RL1 VH domain" to D; compared to TNT70 (antibody, V domains shown)
VH: QVQLLESGGGVVQPGGSLRLSCAASGFAFSIYDMNWVRQAPGKGLEWVSAISSGGGTTYYADSVKGRFTISRDNAKNSLYLQMNSLRAEDTAVYYCARHSGYGTHWGVLFAYWGRGTLVTVSS
VL: DIQMTQSPSSLSASVGDRVTITCRASQDIHGYLNWYQQKPGKAPKLLIYYTSILHSGVPSRFSGSGSGTDFTLTISSLQPEDFATYFCQQGDTLPWTFGQGTKLEIK
B4: N92E: humanized anti-CD22 antibody variant: CDR-L3 N92 "mutated in the RL1 VH domain" to E; compared to TNT70 (antibody, V domains shown)
VH: B3 VH
VL: B3 VL with D92E
B5: N92F: humanized anti-CD22 antibody variant: CDR-L3 N92 "mutated in the RL1 VH domain" to F; compared to TNT70 (antibody, V domains shown)
VH: B3 VH
VL: B3 VL with D92F
B6: N92V: humanized anti-CD22 antibody variant: CDR-L3 N92 "mutated in the RL1 VH domain" to V; compared to TNT70 (antibody, V domains shown)
VH: B3 VH
VL: B3 VL with D92V
B7: N92W: humanized anti-CD22 antibody variant: CDR-L3 N92 "mutated in the RL1 VH domain" to W; compared to TNT70 (antibody, V domains shown)
VH: B3 VH
VL: B3 VL with D92W
B8: N92C: humanized anti-CD22 antibody variant: CDR-L3 N92 "mutated in the RL1 VH domain" to C; compared to TNT70 (antibody, V domains shown)
VH: B3 VH
VL: B3 VL with D92C
B9: N92G: humanized anti-CD22 antibody variant: CDR-L3 N92 "mutated in the RL1 VH domain" to G; compared to TNT70 (antibody, V domains shown)
VH: B3 VH
VL: B3 VL with D92G
B10: N92P: humanized anti-CD22 antibody variant: CDR-L3 N92 "mutated in the RL1 VH domain" to P; compared to TNT70 (antibody, V domains shown)
VH: B3 VH
VL: B3 VL with D92P
B11: N92H: humanized anti-CD22 antibody variant: CDR-L3 N92 "mutated in the RL1 VH domain" to H; compared to TNT70 (antibody, V domains shown)
VH: B3 VH
VL: B3 VL with D92H
B12: N92T: humanized anti-CD22 antibody variant: CDR-L3 N92 "mutated in the RL1 VH domain" to T; compared to TNT70 (antibody, V domains shown)
VH: B3 VH
VL: B3 VL with D92T

Biological target: T1, CD22 (Homo sapiens, UniProt P20273)
Assay: SPR binding of humanized anti-CD22 antibodies (mAb supernatant) to human CD22
Design: human CD22 (d1 to d7 domain according to NP_001762.2)
Details: SPR, mAb supernatant captured on protein A, human CD22-gly
Procedure: Binding of humanized anti-CD22 antibodies to human CD22 was measured by surface plasmon resonance (SPR). For assessment of binding by SPR, biotinylated protein A (15 μg/mL) was immobilized to the surface of an NLC chip. 30 μL of mAb supernatant was added to 150 μL of PBS-T and captured over the protein A surface. […]

| ka | kd | Molecule |
| --- | --- | --- |
| 169000 M⁻¹ s⁻¹ | 0.000117 s⁻¹ | B1 |
| 271000 M⁻¹ s⁻¹ | 0.000667 s⁻¹ | B2 |

Same assay, conditions: human CD22

| affinity compared with RFB4 | Molecule |
| --- | --- |
| equivalent to RFB4 | B2 |

Same assay, conditions: human CD22 d1 to d7 domain; read-out: affinity of binding to human CD22

| Kd | Molecule |
| --- | --- |
| ~0.1 nM | B1 |

Biological target: T1, CD22
Assay: SPR binding of RL1 N92 substitution variants to CD22
Details: not given
Procedure: Humanized anti-CD22 antibodies described in Example 5 were next analyzed for potential sequence liabilities. A potential Asn deamination site is present in the CDR-L3 ([…]) of all humanized variants (FIG. 8B). This site was mutated in the RL1 VH domain to create antibody variants, which were tested for the impact of mutation on binding affinity to CD22. For engineering variants, […] was mutated to all possible amino acids. […] Binding properties of the mutants are summarized below and in FIGS. 15C-15F. All of the […] substitutions looked to be tolerable with respect to binding affinity to CD22.

| binding affinity to CD22 relative to parental antibody | Molecule |
| --- | --- |
| comparable to the parental antibody | B3 |
| comparable to the parental antibody | B4 |
| comparable to the parental antibody | B5 |

Same assay, conditions: SPR, N92 variants of RL1 VL domain vs TNT70

| ka | kd | Molecule |
| --- | --- | --- |
| 146000 M⁻¹ s⁻¹ | 5.05e-05 s⁻¹ | B3 |
| 145000 M⁻¹ s⁻¹ | 8.32e-05 s⁻¹ | B6 |
| 147000 M⁻¹ s⁻¹ | 4.29e-05 s⁻¹ | B4 |
| 143000 M⁻¹ s⁻¹ | 7.87e-05 s⁻¹ | B7 |
| 111000 M⁻¹ s⁻¹ | 7.13e-05 s⁻¹ | B8 |
| 151000 M⁻¹ s⁻¹ | 6.8e-05 s⁻¹ | B9 |
| 112000 M⁻¹ s⁻¹ | 7.24e-05 s⁻¹ | B10 |
| 149000 M⁻¹ s⁻¹ | 6.08e-05 s⁻¹ | B11 |
| 155000 M⁻¹ s⁻¹ | 4.58e-05 s⁻¹ | B5 |
| 149000 M⁻¹ s⁻¹ | 7.85e-05 s⁻¹ | B12 |
